Results published in patent US20220184072A1 (priority 2019, published 2022).

Columns and labels:
[1] = 0.3 and 3 mg/kg s.c. four times, 28 days
[2] = rat, in vivo, sc, 3 mg/kg
in vivo = settings: mouse

O=C1CN2c3c(cccc3[C@@H]3CN(CCCOc4ccc(F)cc4)CC[C@@H]32)N1 [Example 1, (6bR,10aS)-8-(3-(4-fluorophenoxy)propyl)-6b,7,8,9,10,10a-hexahydro-1H-pyrido[3′,4′:4,5]pyrrolo[1,2,3-de]quinoxalin-2(3H)-one]
tolerance [1]: does not produce tolerance
plasma concentration, 24 hours [2]: 1.9 ng/mL
Cmax (in vivo; po, 10 mg/kg): 1290 ng/g
Cmax (in vivo; sc, 0.1 mg/kg): 78.5 ng/g
